{"source": "patent US20040019027A1", "about": "“Method of treating cerebrotendinous xanthomatosis” (priority 2002, published 2004)", "biological_target": "T1, human PXR ligand binding domain (Homo sapiens, UniProt O75469)", "T1 sequence (O75469 107-434)": "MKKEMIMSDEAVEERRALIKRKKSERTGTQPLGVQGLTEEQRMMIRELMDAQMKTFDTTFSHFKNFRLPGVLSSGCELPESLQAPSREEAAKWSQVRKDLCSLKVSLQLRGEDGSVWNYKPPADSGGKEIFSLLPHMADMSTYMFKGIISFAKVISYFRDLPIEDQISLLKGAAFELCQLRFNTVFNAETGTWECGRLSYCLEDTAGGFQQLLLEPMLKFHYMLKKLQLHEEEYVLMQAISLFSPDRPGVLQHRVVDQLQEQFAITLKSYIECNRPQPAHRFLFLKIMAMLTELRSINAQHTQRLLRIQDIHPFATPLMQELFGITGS", "assay": "In vitro ligand displacement assay with [3H]SR12813", "settings": "37.5 nM [3H]SR12813; 5 μM hyperforin, 30 μM Triol, 30 μM Tetrol; FIG. 4", "procedure": "The amount of [^3H]SR12813 associated with human PXR is expressed in cpm.\nTo determine whether a molecule or compound interacts directly with a PXR or is a PXR ligand, an in vitro ligand displacement assay is commonly used. […] In the ligand displacement assay, the ligand binding domain of a PXR is synthesized or expressed and purified. A known PXR ligand is radio-labeled and incubated with the purified ligand binding domain of the PXR. A molecule or compound suspected to be a PXR ligand is then added into the incubated mixture. Radioactivity reading is taken using a scintillation counter. If the molecule or compound competes with the known PXR ligand for the ligand binding domain of the PXR, the molecule or compound is expected to displace some of the radio-labeled known PXR agonist and reduce the radioactivity reading. Accordingly, the reduction of radioactivity reading indicates whether the molecule or compound is a PXR ligand and the extent to which the molecule or compound competes with the known PXR ligand.\nAn in vitro ligand displacement assay was used to determine whether 5β-cholestane-3α, 7α, 12α-triol interacts directly with the ligand binding domain of PXR. Because radiolabeled [^3H]SR12813 are available for human PXR but not mouse PXR, human PXR was used to examine whether 5β-cholestane-3α, 7α, 12α-triol could compete for binding of human PXR to a tritiated SR12813. […]"}
{"substance": "hyperforin", "values": [{"measurement": "displacement of [3H]SR12813 from human PXR (in words)", "value": "effectively displaced"}]}
